This is a selection: effects in other tests are not listed, and their absence says nothing.
Tested on: neonatal rat ventricular myocytes
Assay: Intracellular Ca2+ measurements (Fluo3-AM), spontaneous Ca2+ transients
Type: cell-based
Settings: 20 mM external Cs+ to block HCN channels, 8-CPT 10 μM

CsCl
Effect of 8-CPT on spontaneous Ca2+ transients: failed to prevent the effect of 8-CPT

Source: patent publication US20090169540A1, “Use Of An Antagonist Of Epac For Treating Human Cardiac Hypertrophy” (priority 2005, published 2009)
